{
  "sequences": {"note": "Sequences of proteins named here, by UniProt entry; tags and fusion partners are left off.", "UniProt Q99714, whole entry": "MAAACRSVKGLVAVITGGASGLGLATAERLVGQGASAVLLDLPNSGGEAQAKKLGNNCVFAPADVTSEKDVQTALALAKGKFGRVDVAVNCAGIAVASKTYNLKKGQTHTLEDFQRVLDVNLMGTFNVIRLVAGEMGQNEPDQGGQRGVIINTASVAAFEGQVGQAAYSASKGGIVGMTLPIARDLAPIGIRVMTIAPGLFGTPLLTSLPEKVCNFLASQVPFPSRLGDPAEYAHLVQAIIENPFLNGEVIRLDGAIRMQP"},
  "source": "patent US20250101026A1",
  "about": "“Functionalized Allopurinol Derivatives for Treatment of Alzheimer’s Disease” (BOARD OF REGENTS OF THE UNIVERSITY OF NEBRASKA, priority 2022, published 2025)",
  "origin": "cited, not measured here",
  "target": "ABAD (Homo sapiens, UniProt Q99714)",
  "details": "read-out: IC50 (ABAD, literature); cited from earlier work",
  "data": [
    {"smiles": "COC1=CC(=CNNC(=O)[C@H](C)Nc2cccc3ccccc23)C(=O)C=C1", "values": [
      {"measurement": "IC50", "result": 4.4, "unit": "µM"}
    ]}
  ]
}
